Results reported in US7883707B2, “Induction of antigen specific immunnologic tolerance” (priority 2002, dated 2011).

Tested on: antibody titer to iduronidase
Assay: ELISA antibody titer to iduronidase in canines on weekly iduronidase infusions, with or without tolerance regimens
Settings: early canines, FIG. 5

B1: ITI of iduronidase: intrathymic injection of iduronidase at 1 mg/kg, without immunosuppressive drugs (protein, UniProt P35475 28-653, looked up)
Alpha-L-iduronidase: APHLVHVDAARALWPLRRFWRSTGFCPPLPHSQADQYVLSWDQQLNLAYVGAVPHRGIKQVRTHWLLELVTTRGSTGRGLSYNFTHLDGYLDLLRENQLLPGFELMGSASGHFTDFEDKQQVFEWKDLVSSLARRYIGRYGLAHVSKWNFETWNEPDHHDFDNVSMTMQGFLNYYDACSEGLRAASPALRLGGPGDSFHTPPRSPLSWGLLRHCHDGTNFFTGEAGVRLDYISLHRKGARSSISILEQEKVVAQQIRQLFPKFADTPIYNDEADPLVGWSLPQPWRADVTYAAMVVKVIAQHQNLLLANTTSAFPYALLSNDNAFLSYHPHPFAQRTLTARFQVNNTRPPHVQLLRKPVLTAMGLLALLDEEQLWAEVSQAGTVLDSNHTVGVLASAHRPQGPADAWRAAVLIYASDDTRAHPNRSVAVTLRLRGVPPGPGLVYVTRYLDNGLCSPDGEWRRLGRPVFPTAEQFRRMRAAEDPVAAAPRPLPAGGRLTLRPALRLPSLLLVHVCARPEKPPGQVTRLRALPLTQGQLVLVWSDEHVGSKCLWTYEIQFSQDGKAYTPVSRKPSTFNLFVFSPDTGAVSGSYRVRALDYWARPGPFSDPVPYLEVPVPRGPPSPGNP
  titer by 7 weeks: exceeded 20
